Data taken from patent US20090023780A1 (priority 2000, published 2009).

Columns and labels:
[1] = test system: Sprague-Dawley rats; assay: Phase 2: ability of gacyclidine to counter the hyperalgia induced by naloxone administered during the analgesic effect of fentanyl (modified Randall-Selitto test); settings: for prevention of the naloxone-revealed lowering of nociceptive threshold (fentanyl activation of nociception facilitator system): then naloxone 1 mg/kg s.c.
[2] = test system: Sprague-Dawley rats; assay: Phase 3: potentiating effect of gacyclidine on the analgesic effect of fentanyl and fentanyl-induced prolonged allodynia (modified Randall-Selitto test); settings: 30 min before fentanyl 4x40 μg/kg i.v.

| Compound | effect of naloxone on the nociceptive threshold during fentanyl analgesia ([1]; naloxone 1 mg/kg s.c., 10 min after last fentanyl injection (4x40 μg/kg i.v.), saline pre-treated rats) | potentiation of the analgesic effect of fentanyl ([2]; gacyclidine 0.3 and 1 mg/kg i.v.) | prevention of prolonged allodynia after fentanyl ([2]; gacyclidine at all the doses (0.1, 0.3 and 1 mg/kg i.v.)) | prevention of the naloxone-revealed lowering of nociceptive threshold (fentanyl activation of nociception facilitator system) ([1]; lowest dose of gacyclidine 0.1 mg/kg i.v., 30 min before fentanyl 4x40 μg/kg i.v.) | prevention of the naloxone-revealed lowering of nociceptive threshold (fentanyl activation of nociception facilitator system) ([1]; pre-treatment with gacyclidine 30 min before fentanyl 4x40 μg/kg i.v.) | prevention of fentanyl-induced allodynia lasting several days ([1]; single injection 0.1 mg/kg, 30 minutes before the analgesic) |
| --- | --- | --- | --- | --- | --- | --- |
| C=CCN1CC[C@]23c4c5ccc(O)c4O[C@H]2C(=O)CC[C@@]3(O)[C@H]1C5 | considerable lowering of the nociceptive threshold, below the basic values |  |  |  |  |  |
| 1-[cis-2-methyl-1-(2-thienyl)cyclohexyl]piperidine |  | potentiates the analgesic effect of the fentanyl | prevents prolonged allodynia | completely prevents this effect | This activation is prevented | completely prevents this allodynia |
